PGC1a acetyl inh – modulators of PGC1a acetylation; U2OS PGC1a acetylation, AlphaScreen anti-acetyl-lysine; with virally co-expressed GCN5 acetyltransferase; inhibition, % at 15.6 µM; 350,000 tested, 0.17% active; AID 651687;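 active = every replicate shows inhibition of at least 40%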;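 note: 0% = neutral control wells and 100% = positive control wells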
FN deposition inh – fibronectin deposition inhibition; AH1F fibroblasts, Alexa488-fibronectin deposition fluorescence, overnight; inhibition, % at 12.6 µM; 350,000 tested, 0.086% active; AID 743247;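 active = mean inhibition across replicates of 30% or more, regardless of how many single replicates reach that level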;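 note: positive control wells lacked labelled fibronectin entirely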
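Material: AH1F fibroblast monolayer depositing Alexa488-labelled fibronectin into matrix / Amount: 10000 AH1F cells per well / Signal: fluorescence 485/525 nm / Medium: DMEM, 2% serum / Compound: single dose, pinned / Incubation: 1 h cell adhesion before compound, then overnight fibronectin incubation / Reagent: Alexa488-FN, 24 nM final / Read-out: inhibition of fibronectin deposition signal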
HIV Env fusion – inhibitors of HIV Env-mediated cell fusion. inhibition, % at 12.3 µM. AID 651610. HeLa-JRFL Env/CEM21 cell fusion, luciferase. 360,000 tested, 1.1% active;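 active = mean replicate inhibition score of at least 50 and every replicate individually at or above 50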;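 note: 0% = plate neutral controls and 100% = maraviroc near 300 nM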
Cneo AK release – Cryptococcus neoformans lysis via adenylate kinase release. C. neoformans lysis, adenylate kinase release luminescence, 4 h; normalised: neutral wells 0, clomiphene wells 100. lysis activity, % at 15 µM. 360,000 tested, 0.2% active. AID 651654;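 active = mean lysis activity across replicates of at least 80%, whatever share of replicates individually reach that level; inactive = mean lysis activity below 80%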
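Schedule: static 4 h at 37 °C with compound, 1 h detection; system: C. neoformans cells; benchmarks: Clomiphene as positive control; buffer or medium: fresh YPD medium; measure: luminescence rise reflecting yeast cell lysis; measured by: luminescent adenylate kinase detection reagent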
miR-122 sensor – inhibitors of miR-122 in Huh7 cells | Huh7 miR-122 Renilla luciferase sensor, 48 h; neutral wells = 0, positive control = 100 | 340,000 tested, 0.3% active | activation (reporter increase), % at 12.5 µM;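 active = mean replicate activation score at least 90 and every replicate individually at or above 90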;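 note: higher luciferase means less miR-122 activity so hits act as miR-122 inhibitors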
Yeast UUG start-1 – modulators of yeast start codon fidelity, primary screen, whole organism, S. cerevisiae, single point, plate reader | S. cerevisiae UUG-firefly luciferase reporter, luminescence/redox ratio | activity score, % at 18.7 µM | hit rate 0.13% among 350,000;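 active = replicate mean at a twofold rise or more, about +100% in these data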;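 note: firefly luciferase made from a UUG start codon reports start codon fidelity; reporter light over untreated wells divided by growth signal over untreated wells; some hits fall short of that in this replicate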
Yeast UUG start-2 – alters UUG start codon use in yeast | activation, % at 38 µM | S. cerevisiae UUG-start firefly luciferase, luminescence, 4 h; 100% means double the DMSO signal | 540 tested, under 10 active | shares compounds with Yeast UUG start-1;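 active = signal increase whose fitted curve reaches an absolute level of 40 at a concentration under 10 µM; inactive = activity opposite to the expected increase, or the rest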
Active calls of the source: *; ! = repeats disagree; [ ] = dose if it differs, or a comment. Most compounds without a hit are left out; they make up all but 1.5% or so of the library.

For CCn1c(O)c(N=NC(=O)CNC(=O)Cc2ccccc2)c2ccccc21 the results were PGC1a acetyl inh -2, FN deposition inh -8, HIV Env fusion 19, Cneo AK release 0, miR-122 sensor 5 and Yeast UUG start-1 -3.
For O=C(CNC(=O)c1ccco1)N=Nc1c(O)n(CCc2ccccc2)c2ccccc12 the results were PGC1a acetyl inh -6, FN deposition inh -5, HIV Env fusion -434, Cneo AK release 1, miR-122 sensor 18, Yeast UUG start-1 229* and Yeast UUG start-2 2.
Screening COC(=O)C[C@@H]1C[C@H]2c3cc(NS(=O)(=O)c4ccccc4)ccc3O[C@H]2[C@@H](CO)O1 returned PGC1a acetyl inh -17, FN deposition inh 0, HIV Env fusion -34, Cneo AK release -1, miR-122 sensor 0 and Yeast UUG start-1 12.
For COCC(=O)N1CCN(c2ccc([N+](=O)[O-])cc2)CC1 the results were PGC1a acetyl inh 7, Cneo AK release -1, miR-122 sensor -8, Yeast UUG start-1 671* and Yeast UUG start-2 -2.
O=C(CNC(=O)c1ccccc1F)N/N=C/c1ccco1 was read as FN deposition inh 1, HIV Env fusion -4, Cneo AK release -1 and Yeast UUG start-1 -17.
O=C(CNC(=O)c1ccccc1Br)N/N=C/c1ccco1 was read as FN deposition inh 1, HIV Env fusion -7, Cneo AK release 5, miR-122 sensor -1, Yeast UUG start-1 308* and Yeast UUG start-2 -11.
For O=C1CCC(C(=O)Nc2cccc(Oc3ccccc3)c2)=NN1 the results were PGC1a acetyl inh 7, FN deposition inh 2, HIV Env fusion 1, Cneo AK release -2, miR-122 sensor -1 and Yeast UUG start-1 -13.
COc1ccc(CCNC(=O)CNC(=O)c2nn(-c3ccc(OC)c(OC)c3)c(=O)c3ccccc23)cc1OC was read as PGC1a acetyl inh 8, FN deposition inh 2, HIV Env fusion 36, Cneo AK release -1, miR-122 sensor -3 and Yeast UUG start-1 -5.
Cn1nc(CC(=O)Nc2ccc(OC(=O)c3ccccc3)cc2)c2ccccc2c1=O was read as Yeast UUG start-2 inactive.
For Cn1nc(CC(=O)Nc2ncc(Br)s2)c2ccccc2c1=O the results were PGC1a acetyl inh -11, Cneo AK release -2, miR-122 sensor -1 and Yeast UUG start-1 -20.
Screening Cn1nc(CC(=O)Nc2ccc3c(c2)CCC3)c2ccccc2c1=O returned FN deposition inh 1, HIV Env fusion 79*, Cneo AK release -1, miR-122 sensor 5, Yeast UUG start-1 -10 and Yeast UUG start-2 -3.
`COc1ccc(NC(=O)Cc2nn(C)c(=O)c3ccccc23)cc1` gave Yeast UUG start-2 inactive.
For COc1ccc(CCNC(=O)Cc2nn(C)c(=O)c3ccccc23)cc1OC the results were PGC1a acetyl inh 7, FN deposition inh -5, HIV Env fusion 6, Cneo AK release 0, miR-122 sensor -4, Yeast UUG start-1 6 and Yeast UUG start-2 -8.
`COc1ccc(NC(=O)COc2ccc(-c3nn(C)c(=O)c4ccccc34)cc2)cc1` gave PGC1a acetyl inh -16, FN deposition inh 2, HIV Env fusion 22, Cneo AK release -4, miR-122 sensor 4 and Yeast UUG start-1 0.
Screening COc1ccc2c(c1)C1NC(=S)NC(C)(O2)C1C(=O)Nc1ccc(Cl)cc1 (stereo not given) returned FN deposition inh 15 and HIV Env fusion 10.
`Cc1nonc1NC(=O)CSc1cn[nH]n1` gave FN deposition inh 2, HIV Env fusion 0, Cneo AK release -3 and Yeast UUG start-1 -16.
For O=[N+]([O-])c1cccc(-c2nnc3cccc(Cl)n23)c1 the results were PGC1a acetyl inh 2, FN deposition inh 10, HIV Env fusion -22, Cneo AK release -2, miR-122 sensor -10 and Yeast UUG start-1 -10.
For Cc1cc(=O)[nH]c(=O)n1Cc1ccccc1 the results were PGC1a acetyl inh 28, FN deposition inh -5, HIV Env fusion 0, Cneo AK release -3, miR-122 sensor -10, Yeast UUG start-1 196* and Yeast UUG start-2 1.
For C[C@@H]1CN([C@H](C)CO)S(=O)(=O)c2ccc(C#CCC3CCCC3)cc2O[C@@H]1CN(C)C(=O)c1cnccn1 the results were PGC1a acetyl inh -11, FN deposition inh 20, HIV Env fusion 22[16.7 µM], Cneo AK release -3, miR-122 sensor -13[16.7 µM] and Yeast UUG start-1 2.
`CNC[C@H]1Oc2cc(C#CC3CCCCC3)ccc2S(=O)(=O)N([C@@H](C)CO)C[C@@H]1C` gave FN deposition inh 11.

An excerpt from above in order of molar mass, smallest number first:
O=C(CNC(=O)c1ccccc1F)N/N=C/c1ccco1 was read as FN deposition inh 1, HIV Env fusion -4, Cneo AK release -1 and Yeast UUG start-1 -17.
For CCn1c(O)c(N=NC(=O)CNC(=O)Cc2ccccc2)c2ccccc21 the results were PGC1a acetyl inh -2, FN deposition inh -8, HIV Env fusion 19, Cneo AK release 0, miR-122 sensor 5 and Yeast UUG start-1 -3.
Screening COc1ccc2c(c1)C1NC(=S)NC(C)(O2)C1C(=O)Nc1ccc(Cl)cc1 (stereo not given) returned FN deposition inh 15 and HIV Env fusion 10.

(more compounds)
For C[C@H](CO)N1C[C@H](C)[C@H](CN(C)Cc2ccc(C(=O)O)cc2)Oc2cc(C#CCC3CCCC3)ccc2S1(=O)=O the results were PGC1a acetyl inh 14, FN deposition inh 2, HIV Env fusion -9[16.7 µM], Cneo AK release 4, miR-122 sensor 17[16.7 µM], Yeast UUG start-1 182* and Yeast UUG start-2 inactive.
C[C@@H]1CN([C@@H](C)CO)S(=O)(=O)c2ccc(C#CCC3CCCC3)cc2O[C@@H]1CN(C)Cc1ccc(C(=O)O)cc1 was read as PGC1a acetyl inh -2, FN deposition inh -19, HIV Env fusion -28[16.7 µM], Cneo AK release 2, miR-122 sensor 9[16.7 µM] and Yeast UUG start-1 6.
`C[C@H](CO)N1C[C@H](C)[C@@H](CN(C)C(=O)c2cnccn2)Oc2cc(C#CCC3CCCC3)ccc2S1(=O)=O` gave PGC1a acetyl inh 5, FN deposition inh -4, HIV Env fusion 5[16.7 µM], Cneo AK release -2, miR-122 sensor 35, Yeast UUG start-1 121*! and Yeast UUG start-2 -7.
`C[C@@H]1CN([C@H](C)CO)S(=O)(=O)c2ccc(C#CCC3CCCC3)cc2O[C@H]1CN(C)C(=O)CN(C)C` gave PGC1a acetyl inh -11, FN deposition inh 6, HIV Env fusion -21[16.7 µM], Cneo AK release 0, miR-122 sensor -5[16.7 µM], Yeast UUG start-1 112* and Yeast UUG start-2 inactive.
`C[C@H]1CN([C@@H](C)CO)S(=O)(=O)c2ccc(C#CCC3CCCC3)cc2O[C@@H]1CN(C)C(=O)CN(C)C` gave PGC1a acetyl inh -6, FN deposition inh 4, HIV Env fusion 24[16.7 µM], Cneo AK release 4, miR-122 sensor 2[16.7 µM] and Yeast UUG start-1 32.
`CNC[C@H]1Oc2cc(C#CC3CCCCC3)ccc2S(=O)(=O)N([C@H](C)CO)C[C@@H]1C` gave PGC1a acetyl inh -3, FN deposition inh -3, HIV Env fusion 8[16.7 µM], Cneo AK release 5, miR-122 sensor -42[16.7 µM], Yeast UUG start-1 161* and Yeast UUG start-2 inactive.

Among those listed so far, these have a Cl atom.
Screening COc1ccc2c(c1)C1NC(=S)NC(C)(O2)C1C(=O)Nc1ccc(Cl)cc1 (stereo not given) returned FN deposition inh 15 and HIV Env fusion 10.
For O=[N+]([O-])c1cccc(-c2nnc3cccc(Cl)n23)c1 the results were PGC1a acetyl inh 2, FN deposition inh 10, HIV Env fusion -22, Cneo AK release -2, miR-122 sensor -10 and Yeast UUG start-1 -10.
